61 molecules from PubChem BioAssay AID1777 (Sanford-Burnham Center for Chemical Genomics, 2009) can be followed below.

Amino acid sequences for entries named in this document (tags omitted).
UniProt P41145, whole entry: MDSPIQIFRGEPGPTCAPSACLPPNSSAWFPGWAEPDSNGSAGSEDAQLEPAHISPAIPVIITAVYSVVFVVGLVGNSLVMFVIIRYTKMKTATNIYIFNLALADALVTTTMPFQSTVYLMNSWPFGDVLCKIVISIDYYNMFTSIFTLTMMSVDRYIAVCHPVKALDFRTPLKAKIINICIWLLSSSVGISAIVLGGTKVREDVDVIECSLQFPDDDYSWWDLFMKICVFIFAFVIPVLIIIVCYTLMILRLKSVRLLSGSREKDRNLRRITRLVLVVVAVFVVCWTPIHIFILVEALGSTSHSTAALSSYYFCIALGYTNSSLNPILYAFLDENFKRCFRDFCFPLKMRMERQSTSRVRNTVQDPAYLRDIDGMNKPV

The structures appear in SMILES notation. This is a selection; strong and weak results do not stand in their true shares. Measured potencies and affinities stand elsewhere. The source made the active and inactive calls. Rule as the data show it: active = activation above about 50% (passing the limit was not always enough); inactive = the rest.

In the experiment the target is Kappa-type opioid receptor (Homo sapiens) (UniProt P41145). Put plainly: kappa opioid receptor activators – cell-based, luminescence, uHTS, primary screen (AID 1777). Conditions: KOR beta-arrestin recruitment, at 10 µM, hits give high values. On the technique in general: Arrestin recruitment assays detect the binding of arrestin to an activated receptor.
For the molecule `CCc1ccc(OP(C)(=O)Nc2cccnc2)cc1` (stereo unspecified), the activation is inactive: 1.7%. Next, `COc1ccccc1OP(C)(=O)Nc1c(C)n(C)n(-c2ccccc2)c1=O` (stereo unspecified): inactive: -2.8%.

`O=C(OCCCN1CCCC1)C(O)(c1ccccc1)C1CCCCC1` (stereo unspecified): the activation was inactive: 1.4%. Next, `CCN(CC)CC(O)COC(=O)C(O)(c1ccccc1)C1CCCCC1` (stereo unspecified): inactive: -2%; `COc1ccc(OP(C)(=O)Nc2ccc(Br)cc2)cc1` (stereo unspecified): inactive: 0%. On to `CP(=O)(OC12CC3CC(CC(C3)C1)C2)OC12CC3CC(CC(C3)C1)C2`, for which the activation is inactive: -2%. On to `CCOC(=O)c1ccc(NP(C)(=O)Oc2ccc(Cl)cc2)cc1` (stereo unspecified), for which the activation is inactive: 1.5%. Take `CP(=O)(Nc1ccc(Cl)cc1Cl)Oc1ccccc1` (stereo unspecified): the activation is inactive: -3.5%. Next, `CP(=O)(OCCOc1ccccc1)OCCOc1ccccc1`: inactive: -2.8%; `Cc1nc2ccc3ccccc3c2o1.O=[N+]([O-])c1cc([N+](=O)[O-])c(O)c([N+](=O)[O-])c1`: inactive: 9.9%; `COc1ccc(OP(C)(=O)Nc2ccccc2Br)cc1` (stereo unspecified): inactive: -0.4%. Next, `COc1ccccc1OP(C)(=O)Nc1ccc(C)c(C)c1` (stereo unspecified): inactive: -3.1%; `CCc1ccc(OP(C)(=O)O)cc1`: inactive: 2.1%; `CP(=O)(Nc1ccccn1)Oc1ccccc1` (stereo unspecified): inactive: -3.9%.

`COc1ccccc1OP(C)(=O)Nc1ccc(C)cc1C` (stereo unspecified): the activation was inactive: 2.3%. On to `Cc1c(NP(C)(=O)Oc2ccc(C(C)C)cc2)c(=O)n(-c2ccccc2)n1C` (stereo unspecified), for which the activation is inactive: 6.5%. With `O=[N+]([O-])c1cc([N+](=O)[O-])c(Nc2ccccn2)c([N+](=O)[O-])c1`, the activation was inactive: -7.8%. Next, `CN(C)CCOC(=O)C(O)(c1ccccc1)C1CCCC1` (stereo unspecified): inactive: 9.6%; `COc1ccc(OP(C)(=O)Nc2ccccn2)cc1` (stereo unspecified): inactive: 4%. Next, `COc1ccccc1OP(C)(=O)Nc1ccc(Br)cc1` (stereo unspecified): inactive: 0.5%; `CCN(CC)CCn1c(NCc2ccc(OC)cc2)nc2ccccc21`: inactive: -0.9%. Turning to `CCN(CC)CCCOC(=O)C(O)(c1ccccc1)c1ccccc1`, the activation is inactive: -1.6%. As for `COc1ccc(OP(C)(=O)Nc2cccc(F)c2)cc1` (stereo unspecified), the activation is inactive: -3%. Next, `Cc1cc(C)cc(OP(C)(N)=O)c1` (stereo unspecified): inactive: -2.3%; `CCOC(=O)c1ccc(NP(C)(=O)Oc2ccccc2)cc1` (stereo unspecified): inactive: 3.6%. For `COc1ccccc1OP(C)(=O)Nc1ccc(C)cc1` (stereo unspecified), the activation was inactive: 4.5%. Next, `Cc1ccc(NP(C)(=O)Oc2ccccc2)c(C)c1` (stereo unspecified): inactive: -3.9%. Next, `CC(C)(C)c1ccc(OP(C)(=O)Nc2ccc(SC(F)(F)F)cc2)cc1` (stereo unspecified): inactive: 1%; `Cc1cccc(C)c1OP(C)(N)=O` (stereo unspecified): inactive: -2.1%; `O=[N+]([O-])c1ccc2c(c1)C=Nc1ccccc1O2`: inactive: 1.8%. Next, `COc1ccccc1OP(C)(=O)Nc1ccccc1` (stereo unspecified): inactive: -4.2%.

With `CP(=O)(Nc1ccccc1Br)Oc1ccccc1` (stereo unspecified), the activation is inactive: 4.2%. Regarding `CP(=S)(Nn1cnnc1)Oc1ccccc1` (stereo unspecified), the activation was inactive: -1.6%. Next, `CCCCOc1ccc(C(=O)NCC2(N3CCCCC3)CCCCC2)cc1OC`: inactive: -3.6%; `CP(=O)(Nc1ccccn1)Oc1ccc(Cl)cc1` (stereo unspecified): inactive: 1.9%; `CCOP(C)(=S)SCC(=O)NC(C)C(=O)O` (stereo unspecified): inactive: -3.2%. Next, `CCOC(=O)c1ccc(NP(C)(=O)Oc2ccc(OC)cc2)cc1` (stereo unspecified): inactive: -1.4%; `CP(=O)(NC(=O)Nc1ccccc1)Oc1ccccc1` (stereo unspecified): inactive: 4.3%; `CCc1ccc(OP(C)(=O)N2CCN(c3ccc([N+](=O)[O-])cc3)CC2)cc1` (stereo unspecified): inactive: -1.7%.

In the case of `Cc1cc(C)cc(OP(C)(=O)Nc2ccc(SC(F)(F)F)cc2)c1` (stereo unspecified), the activation is inactive: -0.4%. Next, `Cc1cccc(C)c1OP(C)(=O)Nc1ccc(SC(F)(F)F)cc1` (stereo unspecified): inactive: 0.4%; `CP(=O)(Nc1ccc(SC(F)(F)F)cc1)Oc1ccc(Cl)cc1` (stereo unspecified): inactive: 1.8%; `CP(=O)(Oc1ccccc1)OC(c1ccccc1)C(F)(F)F` (stereo unspecified): inactive: -10.1%. Next, `Cc1nc2ccc3ccccc3c2s1.O=[N+]([O-])c1cc([N+](=O)[O-])c(O)c([N+](=O)[O-])c1`: inactive: -1.3%; `O=[N+]([O-])c1cc([N+](=O)[O-])c(-n2nnc3ccccc32)c([N+](=O)[O-])c1`: inactive: -7.9%.

With `CCCOc1ccc(NP(C)(=O)Oc2ccc(Cl)cc2)cc1` (stereo unspecified), the activation is inactive: -5.5%.

Turning to `CP(=O)(Nc1ccc(SC(F)(F)F)cc1)Oc1ccccc1` (stereo unspecified), the activation was inactive: 0.6%.

For the molecule `COc1ccccc1OP(C)(=O)Nc1c(C)cccc1C` (stereo unspecified), the activation was inactive: -0.1%. As to `CN1CCCCC1COC(=O)C1(O)c2ccccc2CCc2ccccc21` (stereo unspecified), the activation was inactive: -0.9%.

Turning to `CN(C)C1(CNC(=O)c2ccc(S(C)(=O)=O)cc2)CCCCC1`, the activation is inactive: -1.4%. Consider `O=[N+]([O-])c1cc([N+](=O)[O-])c(Nc2nnnn2CCO)c([N+](=O)[O-])c1`, for which the activation was inactive: 0.8%.

In the case of `CCOC(=O)C(CC)C1=NC(C)(C)Cc2ccccc21.O=[N+]([O-])c1cc([N+](=O)[O-])c(O)c([N+](=O)[O-])c1` (stereo unspecified), the activation was inactive: -4.3%. Next, `CC1=NCCc2c1[nH]c1ccccc21.O=[N+]([O-])c1cc([N+](=O)[O-])c(O)c([N+](=O)[O-])c1`: inactive: -0.2%; `O=C(O)c1cccc(Nc2c([N+](=O)[O-])cc([N+](=O)[O-])cc2[N+](=O)[O-])c1`: inactive: -0.6%. `Cc1cc(C)cc(OP(C)(=O)Nc2ccccn2)c1` (stereo unspecified): the activation is inactive: -3.8%. With `CP(=O)(Nc1cccc(Br)c1)Oc1ccccc1` (stereo unspecified), the activation was inactive: 3%. For `Cc1ccc(C)c(NP(C)(=O)Oc2ccccc2)c1` (stereo unspecified), the activation is inactive: 3.8%.

With `Cc1cc(C)cc(OP(C)(=O)Nc2ccc(C)cc2C)c1` (stereo unspecified), the activation was inactive: 10.1%. For `CCOC(=O)c1ccc(NP(C)(=O)Oc2cc(C)cc(C)c2)cc1` (stereo unspecified), the activation is inactive: 3%. In the case of `COc1cc(C(=O)NCC2(N3CCOCC3)CCCCC2)cc(Cl)c1OC(C)C`, the activation is inactive: -0.1%.

As to `COc1ccccc1OP(C)(=O)Nc1cccc(Br)c1` (stereo unspecified), the activation was inactive: -3.5%.
